Consider 3 substances from patent US11332499B2, “Cyclic peptides and methods of use thereof” (Regents of the University of Minnesota, priority 2018, dated 2022).

Amino acid sequences for entries named in this document (tags omitted).
UniProt P32245, whole entry: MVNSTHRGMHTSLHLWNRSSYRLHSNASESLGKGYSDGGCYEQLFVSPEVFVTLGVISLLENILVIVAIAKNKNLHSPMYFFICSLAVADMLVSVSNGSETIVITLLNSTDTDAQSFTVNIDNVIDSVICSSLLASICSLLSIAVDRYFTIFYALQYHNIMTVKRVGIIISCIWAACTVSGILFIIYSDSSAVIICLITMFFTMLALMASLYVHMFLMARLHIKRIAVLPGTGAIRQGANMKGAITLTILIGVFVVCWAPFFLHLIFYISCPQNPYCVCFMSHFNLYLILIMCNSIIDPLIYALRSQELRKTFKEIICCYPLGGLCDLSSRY

What all share (parameters): expressed in transfected cells
Test [1] addresses T1, MC4R (Homo sapiens, UniProt P32245). Kind of test: AlphaScreen cAMP assay, antagonist activity (Schild, NDP-MSH) at hMC4R. The class given is cell-based. Conditions: Table 10. For orientation: Bead proximity is the source of the signal in Alpha formats.
Test [2] deals with T1, MC4R. The test is described as follows: Competitive radioligand binding, displacement of 125I-AGRP, HEK293 cells expressing hMC4R. (In general: In a radioligand displacement assay an active substance lowers the binding of a labelled ligand.)
Test [3] addresses T1, MC4R. Kind of test: AlphaScreen cAMP assay, inverse agonist activity at hMC4R. The format is cell-based. The note with it: Table 10; apparent potency; none = no inverse agonist activity.
For test [4], the target named is T1, MC4R. The test is described as follows: Competitive radioligand binding, displacement of 125I-NDP-MSH, HEK293 cells expressing hMC4R.
Where [5] appears, read: Table 10; read-out: hMC4R 125I-AGRP IC50.

A word on the IC50: it is the concentration that gives 50% inhibition. The term EC50 denotes the concentration needed to bring the measured effect to its halfway point. As for “c[Pro-Arg-Phe-Phe-Dap-Ala-Phe-DPro] [Peptide 2 (Example 1)]”, the “hMC4R Antagonist pA2” value in test [1] is reported as 8.81 ± 0.02. Moreover, the IC50 in test [2] (setting [5]) was found to be 11 ± 1 nM. Besides, the EC50 in test [3] was determined as 3.4 ± 1.9 nM.
For “c[Pro-Arg-Phe-Phe-His-Ala-Phe-DPro] [Peptide 10 (Example 1)]”, the IC50 was 120 ± 50 nM in test [4] (read-out: hMC4R 125I-NDP-MSH IC50; Table 10) and 44 ± 7 nM in test [2] (read-out: hMC4R 125I-AGRP IC50; Table 10).
As to “c[Pro-Arg-Phe-Phe-DDap-Ala-Phe-DPro] [Peptide 9 (Example 1)]”, the IC50 in test [4] (Table 10; read-out: hMC4R 125I-NDP-MSH IC50) was found to be 16 ± 1 nM; in test [2] (setting [5]), 11 ± 4 nM. The EC50 in test [3] stood at 4 ± 2 nM.
